Assay results as given in patent US20110263631A1 (published 2011).

The chains behind the UniProt entries cited, without tags or fusion partners.
UniProt P31652, whole entry: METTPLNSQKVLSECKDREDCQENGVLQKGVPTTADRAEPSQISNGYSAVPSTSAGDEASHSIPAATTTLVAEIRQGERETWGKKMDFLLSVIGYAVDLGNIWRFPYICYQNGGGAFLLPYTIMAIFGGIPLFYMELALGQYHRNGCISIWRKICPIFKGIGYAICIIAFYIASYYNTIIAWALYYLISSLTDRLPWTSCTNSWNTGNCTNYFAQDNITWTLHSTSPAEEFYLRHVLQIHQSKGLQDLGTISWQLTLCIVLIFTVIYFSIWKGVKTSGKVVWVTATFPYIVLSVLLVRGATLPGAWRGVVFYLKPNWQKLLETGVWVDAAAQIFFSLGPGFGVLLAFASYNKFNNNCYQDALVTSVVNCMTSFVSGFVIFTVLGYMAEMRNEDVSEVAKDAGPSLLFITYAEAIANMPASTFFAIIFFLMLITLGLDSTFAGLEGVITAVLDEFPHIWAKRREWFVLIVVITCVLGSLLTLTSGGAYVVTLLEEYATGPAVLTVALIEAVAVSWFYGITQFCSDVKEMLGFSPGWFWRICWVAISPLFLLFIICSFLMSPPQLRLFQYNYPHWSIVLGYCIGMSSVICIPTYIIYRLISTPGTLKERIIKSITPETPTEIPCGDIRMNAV

Target: SERT (Rattus norvegicus, UniProt P31652)
Assay: 3H-5-HT uptake assay in rat brain synaptosomal preparations

**Q.** Which IC50 does the source give for `CNCC[C@@H](Oc1ccccc1C)c1ccccc1` [Atomoxetine, atomoxetine, reference compound] here?
**A.** Its IC50 is 79.4 nM.
